Series [1] is described as follows: Single-dose pharmacokinetics in rats. The settings on record: rat.
A short description of series [2]: Single-dose pharmacokinetics in monkeys. The class given is in vivo, cynomolgus monkey. The settings on record: monkey.
The target of the next series is hERG (Homo sapiens, UniProt Q12809). The series can be described thus: hERG Flux (Tl+ flux, FLIPR). The settings on record: read-out: hERG FLUX IC50; HEK293 cells expressing hERG. The class given is cell-based.
The next series addresses CCR-2 (Homo sapiens, UniProt P41597). The series can be described thus: CCR-2 whole blood integrin (CD11b) upregulation. The class given is cell-based. The settings on record: comparison of CCR-2 and CCR-5 CD11b IC50.
The target of series [3] is T1, CCR-5 (Homo sapiens, UniProt P51681). The series can be described thus: CCR-5 calcium mobilization, HT1080/CCR-5 cells. The class given is cell-based. The settings on record: read-out: CCR-5 ^2+ Flux IC50, MIP-1β 50 nM.
Series [4] has as its target T1, CCR-5. The series can be described thus: CCR-5 GTP-γS exchange, CCR-5/HT1080 membranes. The class given is biochemical. The settings on record: read-out: CCR-5 GTP-γS IC50; MIP-1α/LD78β ligand.
The mark [5] stands for this setting: dose IV/PO 6/72 mg/kg, tested form: TFA.
Where [6] appears, read: dose IV/PO 1/11 mg/kg, tested form: TFA.

The chains behind the UniProt entries cited, without tags or fusion partners.
UniProt Q12809, whole entry: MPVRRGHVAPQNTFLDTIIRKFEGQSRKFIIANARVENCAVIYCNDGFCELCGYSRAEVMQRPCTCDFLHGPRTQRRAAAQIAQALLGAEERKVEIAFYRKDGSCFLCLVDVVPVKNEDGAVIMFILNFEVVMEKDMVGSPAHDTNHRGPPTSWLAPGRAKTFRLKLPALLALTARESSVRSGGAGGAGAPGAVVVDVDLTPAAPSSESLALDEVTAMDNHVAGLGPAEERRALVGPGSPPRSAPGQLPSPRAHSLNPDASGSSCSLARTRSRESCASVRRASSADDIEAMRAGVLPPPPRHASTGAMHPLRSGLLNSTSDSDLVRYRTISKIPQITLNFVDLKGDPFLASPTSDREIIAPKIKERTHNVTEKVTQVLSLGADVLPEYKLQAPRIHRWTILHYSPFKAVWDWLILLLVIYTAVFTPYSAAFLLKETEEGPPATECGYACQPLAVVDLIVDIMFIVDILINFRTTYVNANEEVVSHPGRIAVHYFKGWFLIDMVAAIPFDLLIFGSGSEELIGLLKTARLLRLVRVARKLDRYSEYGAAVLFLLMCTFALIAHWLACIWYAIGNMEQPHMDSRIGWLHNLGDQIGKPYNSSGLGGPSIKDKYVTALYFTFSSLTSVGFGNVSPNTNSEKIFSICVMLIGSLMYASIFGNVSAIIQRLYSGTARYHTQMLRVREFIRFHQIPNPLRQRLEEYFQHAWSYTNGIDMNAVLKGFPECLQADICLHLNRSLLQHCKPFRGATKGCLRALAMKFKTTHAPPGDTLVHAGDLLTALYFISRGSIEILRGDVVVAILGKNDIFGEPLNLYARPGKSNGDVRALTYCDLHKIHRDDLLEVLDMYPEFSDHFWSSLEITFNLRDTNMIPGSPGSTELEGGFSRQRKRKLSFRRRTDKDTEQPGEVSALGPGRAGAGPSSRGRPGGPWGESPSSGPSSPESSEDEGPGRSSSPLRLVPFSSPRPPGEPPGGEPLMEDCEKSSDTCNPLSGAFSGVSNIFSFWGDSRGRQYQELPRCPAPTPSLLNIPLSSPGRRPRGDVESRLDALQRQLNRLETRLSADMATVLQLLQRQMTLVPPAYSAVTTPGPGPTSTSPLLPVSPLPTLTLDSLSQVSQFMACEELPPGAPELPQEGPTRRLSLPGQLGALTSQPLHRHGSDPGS
UniProt P41597, whole entry: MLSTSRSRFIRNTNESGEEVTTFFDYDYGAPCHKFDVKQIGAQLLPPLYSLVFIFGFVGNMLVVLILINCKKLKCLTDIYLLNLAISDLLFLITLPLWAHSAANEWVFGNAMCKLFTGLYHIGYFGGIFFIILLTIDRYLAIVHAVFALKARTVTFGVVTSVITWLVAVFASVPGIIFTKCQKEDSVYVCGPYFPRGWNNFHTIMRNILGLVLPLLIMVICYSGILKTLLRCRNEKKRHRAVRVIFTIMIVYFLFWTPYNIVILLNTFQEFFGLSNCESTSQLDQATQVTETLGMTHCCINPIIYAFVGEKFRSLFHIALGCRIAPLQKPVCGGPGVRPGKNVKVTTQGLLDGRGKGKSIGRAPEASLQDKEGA
UniProt P51681, whole entry: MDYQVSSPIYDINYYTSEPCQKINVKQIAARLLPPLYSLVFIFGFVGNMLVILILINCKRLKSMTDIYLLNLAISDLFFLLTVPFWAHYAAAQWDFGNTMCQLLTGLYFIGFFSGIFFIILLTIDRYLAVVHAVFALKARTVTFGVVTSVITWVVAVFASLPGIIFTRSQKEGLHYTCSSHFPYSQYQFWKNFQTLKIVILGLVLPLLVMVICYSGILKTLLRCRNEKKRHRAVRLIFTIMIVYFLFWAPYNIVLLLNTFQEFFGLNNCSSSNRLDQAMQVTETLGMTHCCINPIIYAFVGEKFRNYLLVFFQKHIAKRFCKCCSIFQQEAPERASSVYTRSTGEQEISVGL

The structures appear in SMILES notation.

With `CC(C)N(C)[C@@H]1CC[C@H](N2CC[C@H](NC(=O)c3cccc(C(F)(F)F)c3)C2=O)[C@H](CS(C)(=O)=O)C1`, the figures for the F % in series [1] (setting [5]) and in series [2] (setting [6]) were 1.4% and 9.4%, respectively. For the same molecule, the results for the “Oral AUC” value in series [1] (setting [5]) and in series [2] (setting [6]) were 0.69 µM·h and 1.896 µM·h, respectively.
For the molecule `CCC[C@@H]1C[C@H](N(C)C(C)C)CC[C@@H]1N1CC[C@H](Nc2ncnc3ccc(C(F)(F)F)cc23)C1=O`, the “Cl” value in series [1] (dose IV/PO 2.5/25 mg/kg) was determined as 40 mL/min/kg. Also, the “Oral AUC” value came to 9.294 µM·h in series [1] (dose IV/PO 2.5/25 mg/kg) and 0.862 µM·h in series [2] (dose IV/PO 1/[…]).
For `CC(=O)N[C@@H]1C[C@H](NC(C)(C)C)CC[C@@H]1N1CC[C@H](Nc2ncnc3ccc(C(F)(F)F)cc23)C1=O`, the concentration for half-maximal inhibition (IC50) on hERG was more than 80 µM. Further, the “Oral AUC” value in series [1] (dose IV/PO 2/10 mg/kg) came to 10.169 µM·h. For the same molecule, the “activity against CCR-2 versus CCR-5 (Table 5)” value on CCR-2 is “predominantly active against CCR-2”.
As to `CC(C)N(C)[C@@H]1CC[C@H](N2CC[C@H](NC(=O)c3cccc(C(F)(F)F)c3)C2=O)[C@H](CS(=O)(=O)C(C)(C)C)C1`, the “Oral AUC” value in series [1] (dose IV/PO 4/43 mg/kg, tested form: TFA) came to 1.855 µM·h; in series [2] (dose IV/PO 1/10 mg/kg, tested form: TFA), 6.763 µM·h.
Regarding `CC(=O)N[C@@H]1C[C@H](N(C)C(C)C)CC[C@@H]1N1CC[C@H](Nc2ncnc3ccc(C(F)(F)F)cc23)C1=O`, the half-inhibitory concentration (IC50) on CCR-5 [3] was found to be 0.024 µM; at CCR-5 [4], 0.111 µM. Besides, the “Oral AUC” value was 3.794 µM·h in series [1] (dose IV/PO 2/10 mg/kg) and 0.836 µM·h in series [2] (dose IV/PO 1/1.3 mg/kg). For the same molecule, on CCR-2, the “activity against CCR-2 versus CCR-5 (Table 5)” value is on record as “predominantly active against CCR-2”.

Values taken from patent publication US8618101B2.
